{
  "source": "patent US9827177B2",
  "about": "“Antiperspirant products with protein and antiperspirant salts” (Colgate-Palmolive Company, priority 2012, dated 2017)",
  "key": {"[1]": {"assay": "Precipitation of ZLC-BSA mixture solutions at adjusted pH", "type": "physicochemical", "conditions": "pure solution, pH 3-11", "procedure": "In the following study, four ZLC-BSA mixture solutions are prepared with 2.53% Zn and varied BSA concentrations (0.05%, 0.1%, 0.5% and 1% by weight) in deionized water.\nThe pH of the solutions is adjusted to 3, 4, 5, 6, 7, 8, 9, 10 and 11 to observe the formation of precipitation. Precipitate is formed in all solutions at pH ranging from 3 to 5. […] All solutions appear clear at pH 8. A small amount of precipitation is also found at pH 9 and 10. At pH 11, precipitate is formed in all solutions. As the concentration of BSA increases, there is an increased amount of precipitation formed at low pH range from 3 to 5. In addition, the pH of pure ZLC solution and the pH of pure 0.5% BSA solution are adjusted to the same range to observe the formation of precipitation. […] The formation of precipitation in acid pH requires both ZLC and BSA to be present in solution."}, "[2]": {"conditions": "sample 2: 1% BSA w/w in H2O, pH 7.2"}, "[3]": {"conditions": "sample 3: 1% BSA w/w in H2O, pH adjusted to 5.1"}},
  "note": "Where two headings read alike, the source gives them in different places.",
  "data": [
    {"substance": "Bovine serum albumin [BSA]", "values": [
      {"measurement": "pH", "setting": "sample 2: 1% BSA w/w in H2O", "result": 7.2},
      {"measurement": "Observation", "setting": "[2]", "result": "Transparent"},
      {"measurement": "Turbidity (NTU)", "setting": "[2]", "result": 3.6, "unit": "NTU"},
      {"measurement": "Observation", "setting": "[3]", "result": "Transparent"},
      {"measurement": "Turbidity (NTU)", "setting": "[3]", "result": 10.6, "unit": "NTU"},
      {"measurement": "formation of precipitation", "setting": "[1]", "result": "No precipitation"}
    ]}
  ]
}
